Test results published in PMC5974779, “Prediction of Drug-Induced Hepatotoxicity Using Long-Term Stable Primary Hepatic 3D Spheroid Cultures in Chemically Defined Conditions” (Toxicological Sciences, 2018).

What was measured:
[1] = test system: primary human hepatocytes (PHH) 3D spheroids
[2] = test system: PHH spheroids (hanging-drop); conditions: cited from earlier work

## CN(CCOc1ccc(CC2SC(=O)NC2=O)cc1)c1ccccn1 (stereo not drawn) [Rosiglitazone]
[1]
  Chemically defined spheroids (this study) 20x: Negative
  hepatotoxicity evaluation in CD-spheroids: did not indicate any hepatic liabilities
[2]
  hepatotoxicity classification in hanging-drop PHH spheroids: flagged as hepatotoxic
